Test system: LLC-PK1 cells
Test: Assay for determination of apparent permeability (Papp), bi-directional transport
Settings: 1 μM test compound, t=3 h, average of A to B and B to A

Row | Papp LLC-PK1 cells (10^−6 cm/s) | Compound
1 | <1.0 10^−6 cm/s | CCNC1=N[C@@H]2[C@@H](O)[C@H](O)[C@@H](CO)O[C@@H]2S1
2 | <1.0 10^−6 cm/s | CN(C)C1=N[C@@H]2[C@@H](O)[C@H](O)[C@@H](CO)O[C@@H]2S1

Reference: US9409924B2, “Selective glycosidase inhibitors and uses thereof” (Alectos Therapeutics Inc., priority 2011, dated 2016)
